The test has as its system HCV NS2/3 (810-1615BK). The class given is biochemical, Hepatitis C virus (BK strain). Conditions: present during synthesis and processing, 30 minutes. The protocol: HCV residues 810-1615 of the BK strain, which includes all of NS2 and most of NS3 (termed 810-1615BK), was produced from the plasmid pCITE 810-1615BK (a gift from Dr. Nicola La Monica) and has been described previously by Pieroni, et al., (1997) J. Virol. 71, 6373. Following plasmid linearization with BLP1, RNA was transcribed with T7 RNA polymerase and purified. Protein translation was in rabbit reticulocyte lysate, 30° C. for 40 minutes using [^35S]-methionine as a label. Translation was then blocked by the addition of cycloheximide (250 μM final) and the samples were immediately frozen on dry ice.
Prior to processing experiments, an aliquot of translated NS2/3 was thawed on ice. Processing of 810-1615BK was initiated by addition to room temperature solutions containing Triton X-100 at 1%, as described by Pieroni, et al., (1997) J. Virol. 71, 6373. The distribution of [^35S]-labeled proteins on dried gels was determined with a Phosphorimager (Molecular Dynamics). Product bands were quantified and expressed as a proportion of total signal in the gel lane so that variations in gel lane loading were normalized.
NS2/3 processing reactions were performed with 810-1615BK. […] (Darke, et al., (1999) J. Biol. Chem. 274, 34511.) Inhibitors were dissolved in DMSO and protected from light. […]

Like-named read-outs stand apart in the source and are kept apart here.

In the case of `C[C@@H]1C[C@H]2O[C@@H]2/C=C\C=C\C(=O)Cc2c(Cl)c(O)cc(O)c2C(=O)O1` [Radicicol], the “NS2/3 Processed (% of Control)” value by setting is: (1 μM) 58 % of Control; (10 μM) 46 % of Control.
